How the values were obtained:
[1] = molecular target: Aga2-HA-PAS40-(G4S)3-CD19-myc yeast surface display fusion protein (CD19.1 ECD displayed on SCASA yeast aAPCs) (synthetic construct, CD19 part modified from human); assay: cell-based or functional assay
[2] = molecular target: CD19 on the human CD19+ NALM6 B cell precursor leukemia cell line (human) (UniProt P15391); assay: cell-based or functional assay

anti-CD19 CAR with fully-human scFv, CD8α hinge and transmembrane domains, CD28 costimulatory domain and CD3ζ activation domain (Hu19-CD828Z) (receptor)
% CD69+ of CAR T cells after 20 hrs co-cultivation with yeast PPGK1-CD19, 0.2× target cells [1]: 63.6% | % CD69+ of CAR T cells after 20 hrs co-cultivation with yeast PPGK1-CD19, 1.0× target cells [1]: 70% | % CD69+ of CAR T cells after 20 hrs co-cultivation with yeast PPGK1-CD19, 5.0× target cells [1]: 84.7% | CD69 expression intensity of CAR T cells relative to CTRL T cell monocultures, yeast PPGK1-CD19, 0.2× target cells [1]: 13.3 fold | CD69 expression intensity of CAR T cells relative to CTRL T cell monocultures, yeast PPGK1-CD19, 1.0× target cells [1]: 20.4 fold | CD69 expression intensity of CAR T cells relative to CTRL T cell monocultures, yeast PPGK1-CD19, 5.0× target cells [1]: 59.2 fold | % CD69+ of CAR T cells, NALM6, highest end over the target cell ratios [2]: 91.9% | % CD69+ of CAR T cells, NALM6, lowest end over the target cell ratios [2]: 50.3% | CD69 expression intensity of CAR T cells relative to CTRL T cell monocultures, NALM6, 5.0× target cells [2]: 44.6 fold | CD69 expression intensity of CAR T cells, NALM6, lowest end over the target cell ratios [2]: 6.1 fold

Reference: patent publication US20260242721A1, “A SYNTHETIC CELLULAR ADVANCED SIGNAL ADAPTER (SCASA) SYSTEM” (Danmarks Tekniske Universitet, priority 2023, published 2026)
